Test results published in PubChem BioAssay AID504937 (National Center for Advancing Translational Sciences (NCATS), 2011).
The list shows a part of the results, in another mix than the full data. Active and inactive are the calls of the source. Calls follow the shape of the dose curve; as a rule, active = well fitted inhibition curve with a large enough effect; inconclusive = small, poorly fitted or top-dose-only effect; inactive = no such curve, though single readings can be large or run the other way.

Amino acid sequences for entries named in this document (tags omitted). Residues count along the entry.
UniProt P17405, 47-631 limits assumed: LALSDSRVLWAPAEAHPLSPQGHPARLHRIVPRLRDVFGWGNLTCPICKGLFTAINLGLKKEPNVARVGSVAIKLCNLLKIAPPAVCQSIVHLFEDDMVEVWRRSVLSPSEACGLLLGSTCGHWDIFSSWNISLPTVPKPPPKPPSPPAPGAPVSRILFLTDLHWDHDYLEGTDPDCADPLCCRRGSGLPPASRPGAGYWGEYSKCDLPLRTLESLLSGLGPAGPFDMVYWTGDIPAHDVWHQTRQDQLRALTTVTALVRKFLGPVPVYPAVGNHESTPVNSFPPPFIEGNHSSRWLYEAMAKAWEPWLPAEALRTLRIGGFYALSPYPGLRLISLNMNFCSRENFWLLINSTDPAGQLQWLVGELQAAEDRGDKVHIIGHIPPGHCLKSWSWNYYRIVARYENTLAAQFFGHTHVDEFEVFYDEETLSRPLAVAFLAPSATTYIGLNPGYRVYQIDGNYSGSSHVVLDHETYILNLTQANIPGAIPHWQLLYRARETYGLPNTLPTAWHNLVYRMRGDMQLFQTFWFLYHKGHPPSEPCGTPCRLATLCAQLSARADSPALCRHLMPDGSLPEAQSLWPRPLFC

Each compound was assayed against Sphingomyelin phosphodiesterase (Homo sapiens) (UniProt P17405) (assay: Inhibitors of Secretory Acid Sphingomyelinase (S-ASM): qHTS). Settings: placental ASM, HMU-PC fluorogenic substrate (series up to 57.5 µM), 60 min; at 57.5 µM (top of the series).

Row | SMILES | activity change, negative = inhibition
1 | CCOC(=O)c1ccc(NP(C)(=O)Oc2ccc(Cl)cc2)cc1 (configuration not stated) | inactive: -0.914%
2 | CP(=O)(OC12CC3CC(CC(C3)C1)C2)OC12CC3CC(CC(C3)C1)C2 | inactive: -3.18%
3 | Nc1ccc2c(ccc3cccnc32)n1.O=[N+]([O-])c1cc([N+](=O)[O-])c(O)c([N+](=O)[O-])c1 | inactive: 12.3%
4 | CN(C)C(=O)c1c([N+](=O)[O-])cc([N+](=O)[O-])cc1[N+](=O)[O-] | inactive: 4.55%
5 | COc1ccccc1OP(C)(=O)Nc1ccccc1Br (configuration not stated) | inactive: 2.84%
6 | CC(C)(C)c1ccc(OP(C)(=O)O)cc1 | inactive: 2.86%
7 | CP(=O)(Nc1ccc(Cl)cc1)Oc1ccc(F)cc1 (configuration not stated) | inactive: 4.8%
8 | COc1ccccc1OP(C)(=O)Nc1c(C)n(C)n(-c2ccccc2)c1=O (configuration not stated) | inactive: -0.513%
9 | O=C(OCCCN1CCCC1)C(O)(c1ccccc1)C1CCCCC1 (configuration not stated) | inactive: 5.11%
10 | CP(=O)(Oc1ccccc1)N1CCOC1=O (configuration not stated) | inactive: 2.68%
11 | CCc1ccc(OP(C)(=O)Nc2cccnc2)cc1 (configuration not stated) | inactive: -3.12%
12 | CCN(CC)CC(O)COC(=O)C(O)(c1ccccc1)C1CCCCC1 (configuration not stated) | inactive: 5.63%
13 | CP(=O)(Nc1ccccn1)Oc1ccccc1 (configuration not stated) | inactive: 5.3%
14 | COc1ccccc1OP(C)(=O)Nc1ccc(C)cc1C (configuration not stated) | inactive: -1.92%
15 | CCc1ccc(OP(C)(=O)O)cc1 | inactive: 7.15%
16 | Cc1c(NP(C)(=O)Oc2ccc(C(C)C)cc2)c(=O)n(-c2ccccc2)n1C (configuration not stated) | inactive: 3.63%
17 | COc1ccc(OP(C)(=O)Nc2ccccn2)cc1 (configuration not stated) | inactive: -2.15%
18 | CN(C)CCOC(=O)C(O)(c1ccccc1)C1CCCC1 (configuration not stated) | inactive: 5.82%
19 | COc1ccccc1OP(C)(=O)Nc1ccc(Br)cc1 (configuration not stated) | inactive: -0.0402%
20 | CP(=O)(Nc1ccc(Cl)cc1Cl)Oc1ccccc1 (configuration not stated) | inactive: 5.45%
21 | CP(=O)(OCCOc1ccccc1)OCCOc1ccccc1 | inactive: -2.73%

Row | SMILES | activity change, negative = inhibition
22 | COc1ccccc1OP(C)(=O)Nc1ccc(C)c(C)c1 (configuration not stated) | inactive: 4.58%
23 | Cc1cc(C)cc(OP(C)(=O)Nc2cccc(C(F)(F)F)c2)c1 (configuration not stated) | inactive: 3.56%
24 | CP(=O)(Nc1ccccc1)Oc1ccc(F)cc1 (configuration not stated) | inactive: 6.49%
25 | CCCCCOc1ccc(NP(C)(=O)Oc2ccc(Cl)cc2Cl)cc1 (configuration not stated) | inactive: -10.3%
26 | Cc1c([N+](=O)[O-])cc([N+](=O)[O-])c(Br)c1[N+](=O)[O-] | inactive: -2.62%
27 | CCN(CC)CCCOC(=O)C(O)(c1ccccc1)C1CCCCC1 (configuration not stated) | inactive: -2.39%
28 | CCOC(=O)c1ccc(NP(C)(=O)Oc2ccc(F)cc2)cc1 (configuration not stated) | inactive: 3.85%
29 | COc1ccc(OP(C)(=O)Nc2ccc(SC(F)(F)F)cc2)cc1 (configuration not stated) | inactive: -1.52%
30 | O=C(OCCN1CCN(CCOCc2ccccc2)CC1)C(O)(c1ccccc1)c1ccccc1 | inactive: 0.468%
31 | CP(=O)(Nc1ccccc1F)Oc1ccccc1 (configuration not stated) | inactive: -2.54%
32 | CC(C)c1ccc(OP(C)(=O)Nc2ccc(SC(F)(F)F)cc2)cc1 (configuration not stated) | inactive: -16.9%
33 | Cc1ccccc1NP(C)(=O)Nc1ccccc1C | inactive: 0.536%
34 | CP(=O)(Nc1ccc2c(c1)OCCO2)Oc1ccccc1 (configuration not stated) | inactive: -0.895%
35 | CCOP(C)(=S)SCC(=O)NC(C)(CC)C(=O)O (configuration not stated) | inactive: 4.92%
36 | CP(=O)(Nc1ccc(SC(F)(F)F)cc1)Oc1ccc(F)cc1 (configuration not stated) | inactive: -0.593%
37 | Cc1c(C(c2ccc3c(c2)OCO3)c2c(C)n(C)n(-c3ccccc3)c2=O)c(=O)n(-c2ccccc2)n1C.O=[N+]([O-])c1cc([N+](=O)[O-])c(O)c([N+](=O)[O-])c1 | inactive: 6.87%
38 | O=[N+]([O-])c1ccc(OP2(=O)COCCO2)cc1 (configuration not stated) | inactive: 3.58%
39 | Cc1cc(-c2cccc3ccccc23)c(C)cn1.O=[N+]([O-])c1cc([N+](=O)[O-])c(O)c([N+](=O)[O-])c1 | inactive: -0.102%
40 | CN(C)CCOC(=O)C(O)(c1ccccc1)C1CCCCC1 (configuration not stated) | inactive: -1.68%
41 | COc1ccc(NP(C)(=O)Oc2ccccc2OC)cc1 (configuration not stated) | inactive: -3.07%
42 | COc1ccc(OP(C)(=O)Nc2cccc(Br)c2)cc1 (configuration not stated) | inactive: 3.23%

Row | SMILES | activity change, negative = inhibition
43 | CCCOc1ccc(NP(C)(=O)Oc2ccc(Cl)cc2)cc1 (configuration not stated) | inactive: -1.92%
44 | CP(=O)(Nc1ccc(SC(F)(F)F)cc1)Oc1ccccc1 (configuration not stated) | inactive: -1.05%
45 | COc1ccccc1OP(C)(=O)Nc1c(C)cccc1C (configuration not stated) | inactive: 3.69%
46 | CN1CCCCC1COC(=O)C1(O)c2ccccc2CCc2ccccc21 (configuration not stated) | inactive: 0.571%
47 | CC1=C2N=C(C=C3N=C(C(C)=C4[N-][C@@](C)([C@@H]5N=C1[C@](C)(CCC(=O)NC[C@@H](C)OP(=O)([O-])O[C@H]1[C@@H](O)[C@@H](n6cnc7cc(C)c(C)cc76)O[C@@H]1CO)[C@H]5CC(N)=O)[C@@](C)(CC(N)=O)[C@@H]4CCC(N)=O)[C@@](C)(CC(N)=O)[C@@H]3CCC(N)=O)C(C)(C)[C@@H]2CCC(N)=O.[C-]#N.[Co+3] | inactive: -1.25%
48 | O=[N+]([O-])c1cc([N+](=O)[O-])c(Nc2nnnn2CCO)c([N+](=O)[O-])c1 | inactive: -19.7%
49 | Cc1nc2ccc3ccccc3c2s1.O=[N+]([O-])c1cc([N+](=O)[O-])c(O)c([N+](=O)[O-])c1 | inactive: -3.11%
50 | O=[N+]([O-])c1cc([N+](=O)[O-])c(-c2cnn(-c3ccccc3)c2)c([N+](=O)[O-])c1 | inactive: -2.85%
51 | O=[N+]([O-])c1cc([N+](=O)[O-])c(-n2nnc3ccccc32)c([N+](=O)[O-])c1 | inactive: -0.878%
52 | Cc1ccc(C)c(NP(C)(=O)Oc2ccccc2)c1 (configuration not stated) | inactive: 1.04%
53 | Cc1cc(C)cc(OP(C)(=O)Nc2ccccn2)c1 (configuration not stated) | inactive: 4.15%
54 | CP(=O)(Nc1cccc(Br)c1)Oc1ccccc1 (configuration not stated) | inactive: -2.04%
55 | CCOC(=O)c1ccc(NP(C)(=O)Oc2cc(C)cc(C)c2)cc1 (configuration not stated) | inactive: -1.15%
56 | Cc1cc(C)cc(OP(C)(=O)Nc2ccc(C)cc2C)c1 (configuration not stated) | inactive: 1.08%
57 | COc1ccccc1OP(C)(=O)Nc1cccc(Br)c1 (configuration not stated) | inactive: -0.361%
58 | CC1=NCCc2c1[nH]c1ccccc21.O=[N+]([O-])c1cc([N+](=O)[O-])c(O)c([N+](=O)[O-])c1 | inactive: 20.9%
59 | Cc1cc(C)cc(OP(C)(N)=O)c1 (configuration not stated) | inactive: -4.01%
60 | COc1ccccc1OP(C)(=O)Nc1cc(Cl)ccc1C (configuration not stated) | inactive: -0.732%
61 | COc1ccc(OP(C)(=O)Nc2cccc(F)c2)cc1 (configuration not stated) | inactive: 4.02%
62 | COc1ccccc1OP(C)(=O)Nc1ccc(C)cc1 (configuration not stated) | inactive: 2.32%
63 | Cc1ccc(NP(C)(=O)Oc2ccccc2)c(C)c1 (configuration not stated) | inactive: -2.48%

Row | SMILES | activity change, negative = inhibition
64 | CCOC(=O)c1ccc(NP(C)(=O)Oc2ccccc2)cc1 (configuration not stated) | inactive: -0.11%
65 | O=[N+]([O-])c1ccc2c(c1)C=Nc1ccccc1O2 | inactive: -2.69%
66 | CC(C)(C)c1ccc(OP(C)(=O)Nc2ccc(SC(F)(F)F)cc2)cc1 (configuration not stated) | inactive: -19.2%
67 | Cc1cccc(C)c1OP(C)(N)=O (configuration not stated) | inactive: -1.35%
68 | O=[N+]([O-])c1cc([N+](=O)[O-])c(Nc2cccnc2)c([N+](=O)[O-])c1 | inactive: -5.99%
69 | CCN(CC)CCCOC(=O)C(O)(c1ccccc1)c1ccccc1 | inactive: -1.34%
70 | CP(=O)(Nc1ccccn1)Oc1ccc(Cl)cc1 (configuration not stated) | inactive: 1.96%
71 | CCOC(=O)c1ccc(NP(C)(=O)Oc2ccc(OC)cc2)cc1 (configuration not stated) | inactive: -1.83%
72 | O=[N+]([O-])c1cc([N+](=O)[O-])c(O)c([N+](=O)[O-])c1.c1ccc(Oc2ccncc2)cc1 | inactive: 11.2%
73 | CCOP(C)(=S)SCC(=O)NC(C)C(=O)O (configuration not stated) | inactive: 4.72%
74 | CP(=O)(NC(=O)Nc1ccccc1)Oc1ccccc1 (configuration not stated) | inactive: 7.14%
75 | CCc1ccc(OP(C)(=O)N2CCN(c3ccc([N+](=O)[O-])cc3)CC2)cc1 (configuration not stated) | inactive: -16.9%
76 | Cc1cc(C)cc(OP(C)(=O)Nc2ccc(SC(F)(F)F)cc2)c1 (configuration not stated) | inactive: 1.27%
77 | Cc1cccc(C)c1OP(C)(=O)Nc1ccc(SC(F)(F)F)cc1 (configuration not stated) | inactive: 0.389%
78 | CP(=O)(Nc1ccc(SC(F)(F)F)cc1)Oc1ccc(Cl)cc1 (configuration not stated) | inactive: -11.9%
79 | CP(=O)(Oc1ccccc1)OC(c1ccccc1)C(F)(F)F (configuration not stated) | inactive: -1.47%
80 | CP(=O)(Nc1ccccc1Br)Oc1ccccc1 (configuration not stated) | inactive: 3.13%
81 | COc1ccccc1OP(C)(=O)Nc1ccccc1 (configuration not stated) | inactive: 5.32%
82 | CP(=S)(Nn1cnnc1)Oc1ccccc1 (configuration not stated) | inactive: 0.96%
